Experimental data published in ChEMBL document CHEMBL1139181, “Design and synthesis of novel heterobiaryl amides as metabotropic glutamate receptor subtype 5 antagonists” (Bioorg Med Chem Lett, 2007).

The chains behind the UniProt entries cited, without tags or fusion partners.
UniProt P31424, whole entry: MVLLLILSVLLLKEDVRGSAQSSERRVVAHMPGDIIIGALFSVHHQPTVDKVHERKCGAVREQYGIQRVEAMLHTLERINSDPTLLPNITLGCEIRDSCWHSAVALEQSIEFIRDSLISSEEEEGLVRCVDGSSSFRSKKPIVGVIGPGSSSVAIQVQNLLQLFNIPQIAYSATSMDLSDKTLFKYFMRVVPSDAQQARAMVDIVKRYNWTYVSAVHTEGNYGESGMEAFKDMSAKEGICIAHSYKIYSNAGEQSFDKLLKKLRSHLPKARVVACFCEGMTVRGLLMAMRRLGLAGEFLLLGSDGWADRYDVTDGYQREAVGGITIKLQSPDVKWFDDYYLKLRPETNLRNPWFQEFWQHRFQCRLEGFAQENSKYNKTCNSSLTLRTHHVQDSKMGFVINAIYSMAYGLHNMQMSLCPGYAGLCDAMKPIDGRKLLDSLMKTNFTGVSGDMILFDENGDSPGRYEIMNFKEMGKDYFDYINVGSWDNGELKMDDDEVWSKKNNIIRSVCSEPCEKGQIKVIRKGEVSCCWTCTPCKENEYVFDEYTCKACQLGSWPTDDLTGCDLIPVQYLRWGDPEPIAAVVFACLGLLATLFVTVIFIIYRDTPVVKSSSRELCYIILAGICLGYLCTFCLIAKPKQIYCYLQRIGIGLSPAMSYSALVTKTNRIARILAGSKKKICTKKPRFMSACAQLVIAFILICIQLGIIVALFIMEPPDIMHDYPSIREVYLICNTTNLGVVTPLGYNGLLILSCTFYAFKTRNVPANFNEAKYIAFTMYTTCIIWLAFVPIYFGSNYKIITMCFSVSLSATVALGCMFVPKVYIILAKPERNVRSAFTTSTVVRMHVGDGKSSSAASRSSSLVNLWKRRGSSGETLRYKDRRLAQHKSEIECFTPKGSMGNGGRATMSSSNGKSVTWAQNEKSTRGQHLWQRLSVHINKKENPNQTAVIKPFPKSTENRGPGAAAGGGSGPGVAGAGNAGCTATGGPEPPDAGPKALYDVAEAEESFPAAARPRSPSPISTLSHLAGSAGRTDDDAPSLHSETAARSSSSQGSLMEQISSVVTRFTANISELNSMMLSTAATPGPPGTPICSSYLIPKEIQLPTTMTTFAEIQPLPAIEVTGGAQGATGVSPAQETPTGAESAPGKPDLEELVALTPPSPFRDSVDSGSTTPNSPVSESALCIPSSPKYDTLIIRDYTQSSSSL

Target: Metabotropic glutamate receptor 5 (Rattus norvegicus, UniProt P31424)
Assay: Displacement of [3H]MPEP from mGluR5 in rat brain membrane
Assay type: cell membranes

Ki: 21 nM
Compound: Cc1cccc(C#Cc2ccccc2)n1
